In the Human Domainome abundance scans (Beltran et al. 2025):

B1: Tyrosine-protein kinase ABL1, residues 64 to 120; numbered along this chain, P00519 (parent)
chain: NLFVALYDFVASGDNTLSITKGEKLRVLGYNHNGEWCEAQTKNGQGWVPSNYITPVN

Variants of: B1
Assay: abundance fitness (aPCA) (normalised: wild type 0, dead -1); higher = more abundant; growth selection in yeast, the domain comes from the species named
Conditions: Homo sapiens

Variant	abundance fitness
NLFVALYDFVANGDNTLSITKGEKLRVLGYNHNGEWCEAQTKNGQGWVPSNYITPVN	-0.035 ± 0.22
NLFVALYDFVAQGDNTLSITKGEKLRVLGYNHNGEWCEAQTKNGQGWVPSNYITPVN	-0.459 ± 0.2
NLFVALYDFVAIGDNTLSITKGEKLRVLGYNHNGEWCEAQTKNGQGWVPSNYITPVN	-0.248 ± 0.13
NLFVALYDFVAGGDNTLSITKGEKLRVLGYNHNGEWCEAQTKNGQGWVPSNYITPVN	-0.032 ± 0.092
NLFVALYDFVAEGDNTLSITKGEKLRVLGYNHNGEWCEAQTKNGQGWVPSNYITPVN	0.071 ± 0.11
NLFVALYDFVAMGDNTLSITKGEKLRVLGYNHNGEWCEAQTKNGQGWVPSNYITPVN	0.237 ± 0.1
NLFVALYDFVAHGDNTLSITKGEKLRVLGYNHNGEWCEAQTKNGQGWVPSNYITPVN	-0.442 ± 0.38
NLFVALYDFVARGDNTLSITKGEKLRVLGYNHNGEWCEAQTKNGQGWVPSNYITPVN	-0.027 ± 0.064
NLFVALYDFVACGDNTLSITKGEKLRVLGYNHNGEWCEAQTKNGQGWVPSNYITPVN	-0.298 ± 0.065
NLFVALYDFVAFGDNTLSITKGEKLRVLGYNHNGEWCEAQTKNGQGWVPSNYITPVN	-0.469 ± 0.12
NLFVALYDFVALGDNTLSITKGEKLRVLGYNHNGEWCEAQTKNGQGWVPSNYITPVN	-0.099 ± 0.076
NLFVALYDFVAPGDNTLSITKGEKLRVLGYNHNGEWCEAQTKNGQGWVPSNYITPVN	0.148 ± 0.091
NLFVALYDFVAAGDNTLSITKGEKLRVLGYNHNGEWCEAQTKNGQGWVPSNYITPVN	0.125 ± 0.099
NLFVALYDFVAKGDNTLSITKGEKLRVLGYNHNGEWCEAQTKNGQGWVPSNYITPVN	-0.096 ± 0.14
NLFVALYDFYASGDNTLSITKGEKLRVLGYNHNGEWCEAQTKNGQGWVPSNYITPVN	-0.335 ± 0.17
NLFVALYDFLASGDNTLSITKGEKLRVLGYNHNGEWCEAQTKNGQGWVPSNYITPVN	-0.15 ± 0.078
NLFVALYDFPASGDNTLSITKGEKLRVLGYNHNGEWCEAQTKNGQGWVPSNYITPVN	-0.126 ± 0.087
NLFVALYDFQASGDNTLSITKGEKLRVLGYNHNGEWCEAQTKNGQGWVPSNYITPVN	0.212 ± 0.11
NLFVALYDFRASGDNTLSITKGEKLRVLGYNHNGEWCEAQTKNGQGWVPSNYITPVN	-0.044 ± 0.072
NLFVALYDFDASGDNTLSITKGEKLRVLGYNHNGEWCEAQTKNGQGWVPSNYITPVN	-0.398 ± 0.17
NLFVALYDFMASGDNTLSITKGEKLRVLGYNHNGEWCEAQTKNGQGWVPSNYITPVN	0.099 ± 0.079
NLFVALYDFKASGDNTLSITKGEKLRVLGYNHNGEWCEAQTKNGQGWVPSNYITPVN	0.039 ± 0.095
NLFVALYDFNASGDNTLSITKGEKLRVLGYNHNGEWCEAQTKNGQGWVPSNYITPVN	0.096 ± 0.073
NLFVALYDFHASGDNTLSITKGEKLRVLGYNHNGEWCEAQTKNGQGWVPSNYITPVN	0.209 ± 0.17

Variant	abundance fitness
NLFVALYDFEASGDNTLSITKGEKLRVLGYNHNGEWCEAQTKNGQGWVPSNYITPVN	0.022 ± 0.084
NLFVALYDFTASGDNTLSITKGEKLRVLGYNHNGEWCEAQTKNGQGWVPSNYITPVN	-0.034 ± 0.091
NLFVALYDFWASGDNTLSITKGEKLRVLGYNHNGEWCEAQTKNGQGWVPSNYITPVN	-0.161 ± 0.12
NLFVALYDFSASGDNTLSITKGEKLRVLGYNHNGEWCEAQTKNGQGWVPSNYITPVN	-0.088 ± 0.086
NLFVALYDFFASGDNTLSITKGEKLRVLGYNHNGEWCEAQTKNGQGWVPSNYITPVN	0.051 ± 0.12
NLFVALYDFIASGDNTLSITKGEKLRVLGYNHNGEWCEAQTKNGQGWVPSNYITPVN	0.022 ± 0.08
NLFVALYDFVSSGDNTLSITKGEKLRVLGYNHNGEWCEAQTKNGQGWVPSNYITPVN	-0.287 ± 0.11
NLFVALYDFVDSGDNTLSITKGEKLRVLGYNHNGEWCEAQTKNGQGWVPSNYITPVN	-0.067 ± 0.15
NLFVALYDFVYSGDNTLSITKGEKLRVLGYNHNGEWCEAQTKNGQGWVPSNYITPVN	-0.298 ± 0.082
NLFVALYDFVQSGDNTLSITKGEKLRVLGYNHNGEWCEAQTKNGQGWVPSNYITPVN	-0.148 ± 0.12
NLFVALYDFVPSGDNTLSITKGEKLRVLGYNHNGEWCEAQTKNGQGWVPSNYITPVN	-0.194 ± 0.1
NLFVALYDFVHSGDNTLSITKGEKLRVLGYNHNGEWCEAQTKNGQGWVPSNYITPVN	-0.203 ± 0.1
NLFVALYDFVGSGDNTLSITKGEKLRVLGYNHNGEWCEAQTKNGQGWVPSNYITPVN	-0.17 ± 0.077
NLFVALYDFVESGDNTLSITKGEKLRVLGYNHNGEWCEAQTKNGQGWVPSNYITPVN	-0.154 ± 0.11
NLFVALYDFVRSGDNTLSITKGEKLRVLGYNHNGEWCEAQTKNGQGWVPSNYITPVN	-0.094 ± 0.064
NLFVALYDFVNSGDNTLSITKGEKLRVLGYNHNGEWCEAQTKNGQGWVPSNYITPVN	-0.182 ± 0.28
NLFVALYDFVCSGDNTLSITKGEKLRVLGYNHNGEWCEAQTKNGQGWVPSNYITPVN	-0.107 ± 0.073
NLFVALYDFVMSGDNTLSITKGEKLRVLGYNHNGEWCEAQTKNGQGWVPSNYITPVN	-0.124 ± 0.1
NLFVALYDFVTSGDNTLSITKGEKLRVLGYNHNGEWCEAQTKNGQGWVPSNYITPVN	-0.021 ± 0.12
NLFVALYDFVWSGDNTLSITKGEKLRVLGYNHNGEWCEAQTKNGQGWVPSNYITPVN	-0.455 ± 0.092
NLFVALYDFVKSGDNTLSITKGEKLRVLGYNHNGEWCEAQTKNGQGWVPSNYITPVN	-0.015 ± 0.1
NLFVALYDFVVSGDNTLSITKGEKLRVLGYNHNGEWCEAQTKNGQGWVPSNYITPVN	-0.396 ± 0.085
NLFVALYDFVLSGDNTLSITKGEKLRVLGYNHNGEWCEAQTKNGQGWVPSNYITPVN	-0.275 ± 0.076

± gives the uncertainty stated by the source.
